From US20080063599A1, “Compounds Which Can Be Used To Diagnose And Monitor Diseases Associated With The Formation Of Amyloid Protein Fibrils” (priority 2002, published 2008) come the findings set out here.

Assay [1] relates to amyloid plaques in the mice brains. As to the kind of experiment: SPECT images of transgenic mice. It is filed as in vivo. The conditions noted are these: Tg2576 mice; injected via the tail vein; images 4.5 hours after administration. As for the experimental part: The study was performed using transgenic mice (Tg2576) in groups of 5 animals for each time value. The tracers (with SPECT-detectable radionuclides) (1-5 uCi) dissolved in 100 uL of PBS or in the appropriate solvent were injected via the tail vein.
SPECT images were obtained after 4.5 hours from the administration of the 5-chloro-8-hydroxy-7-[123I]iodoquinoline tracer by means of a double-head camera (MULTISPECT II, Siemens Medical Systems) equipped with parallel low energy high resolution collimators, using an energy window centred on the photopeak energy of the corresponding radionuclide (159 KeV for 123I).
^57Co sources were used which were placed on the head of the animal in order to aid reconstruction by means of anatomical references. 120 projections were obtained in a 360 degree turn, acquired in a 64×64 matrix. Two simultaneous acquisitions are performed, one using a window of 20% of the energy centred at 159 KeV for ^123I and another of 4% of the energy centred at 122 KeV for the ^57Co labels. Total exploration time was about 40 minutes. The SPECT images were reconstructed using a filter-back projection algorithm. The attenuation correction was performed using the Chang algorithm.
The semiquantitative analysis of the uptake was performed comparing the average/pixel counts in the region of interest with the average/pixel counts in control regions. […]

The test system of assay [2] is amyloid plaques of the mice brains. In words: Quantitative autoradiography in transgenic mice and control mice. As to conditions: intravenous injection via the jugular vein; brains removed after 2, 4, 6 hours; Tg2576 and control mice. It is filed as in vivo. As to the method:
The 5-chloro-8-hydroxy-7-[^123I]iodoquinoline radioactive derivative is injected in transgenic mice (Tg2576) and control mice via the jugular vein under anaesthesia using a 30 g syringe. A series of controls and transgenic mice are examined. After 2, 4, 6 hours of the intravenous injection, the brains-of each mouse are removed, they are quickly cooled with dry ice and dissected using a Mokron HM 505E cryostat apparatus, placing them on glass sheets and drying them at room temperature. For the film autoradiography the sheets are placed in a MICROM optical densitometer obtaining greyscale images of the distribution of the radiopharmaceutical in the histological sections. Measured optical density is expressed as a percentage (%) of the maximum.

As to `Oc1c([123I])cc(Cl)c2cccnc12` [5-chloro-8-hydroxy-7-[^123I]iodoquinoline], in assay [1], the “distribution of amyloid plaques in SPECT images” value is “showed the distribution of the amyloid plaques”. In assay [2], the “detection of amyloid plaques in film autoradiography images of brain sections” value is given as “optimal detection of amyloid plaques”.
